Literature values, collected in US20250026710A1, “PROCESS FOR PREPARING A BENZOATE SALT OF A 1-(3-AMINOPYRROLIDINE-1-CARBONYL)-3,4-DIPHENYLBENZENE COMPOUND” (Astex Pharmaceuticals, Inc., priority 2021, published 2025).
Counter-ions that a name gives are not always drawn.

Conditions: rats, dose 32 mg/5 mL/kg

## CC(C)(O)Cc1ccc(-c2ccc(C(=O)N3CC[C@H](N)C3)cc2-c2ccc(C#N)c(F)c2)c(F)c1 [benzoate salt of Compound (A)]
Compared with free form and sorbic acid salt
  drug adsorption/exposure: superior drug adsorption/exposure
Listed as benzoic acid salt of Compound (A)
  AUC: 16.13 µM·h
